The subject of the assay is HPAC. The experiment in a line: Cytotoxicity against human HPAC cells assessed as cell viability after 72 hrs by MTT assay. The format is functional, cell-based. (Tetrazolium assays rely on reduction of a dye to a coloured formazan, in cell work by metabolically active cells.)

pIC50: −log10 of the molar value.

Turning to `NS(=O)(=O)c1cccc2c1C(=O)c1cccc(O)c1C2=O`, the pIC50 (commonly the negative decadic logarithm of the IC50, by convention in mol/L) was 6.80.

For the origin of these results see ChEMBL document CHEMBL2380221, “Discovery of novel STAT3 small molecule inhibitors via in silico site-directed fragment-based drug design” (J Med Chem, 2013).
